We go through one compound from article PMC7101055 (ACS Chemical Neuroscience, 2020).

By UniProt entry, the sequences of proteins in these tests, tags left out.
UniProt P61168, whole entry: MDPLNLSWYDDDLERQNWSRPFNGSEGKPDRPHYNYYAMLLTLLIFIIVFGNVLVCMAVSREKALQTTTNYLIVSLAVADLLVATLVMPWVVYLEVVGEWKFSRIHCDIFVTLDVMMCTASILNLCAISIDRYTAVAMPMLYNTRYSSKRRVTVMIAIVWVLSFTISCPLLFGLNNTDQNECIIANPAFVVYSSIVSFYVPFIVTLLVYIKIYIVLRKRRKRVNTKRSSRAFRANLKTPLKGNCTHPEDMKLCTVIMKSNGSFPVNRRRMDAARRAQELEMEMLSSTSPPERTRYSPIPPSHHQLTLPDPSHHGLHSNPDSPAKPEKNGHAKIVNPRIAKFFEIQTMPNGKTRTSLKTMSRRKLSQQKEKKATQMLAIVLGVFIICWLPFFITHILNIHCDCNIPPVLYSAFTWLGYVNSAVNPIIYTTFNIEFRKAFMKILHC

The assay addresses D2 receptors on substantia nigra dopamine neurons (Mus musculus, UniProt P61168). In kind it is cell-based.

For `COC(=O)[C@H]1[C@@H](OC(=O)c2ccccc2)C[C@@H]2CC[C@H]1N2C` [cocaine], for the setting “cocaine (3 μM) added to CyHQ-O-DA (150 μM)”, the “effect on CyHQ-O-DA flash response” value was “increased in amplitude and duration”. Further, under “due to spontaneously released dopamine no longer transported”, the “current produced by cocaine itself” value is “produced a small current”.
